In ChEMBL document CHEMBL5113513, “Selective Inhibitors of Medium-Size S1' Pocket Matrix Metalloproteinases: A Stepping Stone of Future Drug Discovery” (J Med Chem, 2022) one finds Ki data, which are given here for one compound.

The target of the assay is Collagenase 3 (Homo sapiens, UniProt P45452).

With `CN1C(=O)N(C[C@H](C(=O)NO)[C@H](CC2CCCC2)C(=O)N2CCCCC2)C(=O)C1(C)C`, the Ki came out at 3 nM. This counts as single-digit nanomolar.

One may read the Ki as a dissociation constant, usually derived from enzyme kinetics or from competition with a known ligand. A low value points to a stronger hold on the target.
